Measurements published in PMC9679702, “BI 456906: Discovery and preclinical pharmacology of a novel GCGR/GLP-1R dual agonist with robust anti-obesity efficacy” (Molecular Metabolism, 2022).

By UniProt entry, the sequences of proteins in these tests, tags left out. Residues count along the entry.
UniProt P47871, 26-477: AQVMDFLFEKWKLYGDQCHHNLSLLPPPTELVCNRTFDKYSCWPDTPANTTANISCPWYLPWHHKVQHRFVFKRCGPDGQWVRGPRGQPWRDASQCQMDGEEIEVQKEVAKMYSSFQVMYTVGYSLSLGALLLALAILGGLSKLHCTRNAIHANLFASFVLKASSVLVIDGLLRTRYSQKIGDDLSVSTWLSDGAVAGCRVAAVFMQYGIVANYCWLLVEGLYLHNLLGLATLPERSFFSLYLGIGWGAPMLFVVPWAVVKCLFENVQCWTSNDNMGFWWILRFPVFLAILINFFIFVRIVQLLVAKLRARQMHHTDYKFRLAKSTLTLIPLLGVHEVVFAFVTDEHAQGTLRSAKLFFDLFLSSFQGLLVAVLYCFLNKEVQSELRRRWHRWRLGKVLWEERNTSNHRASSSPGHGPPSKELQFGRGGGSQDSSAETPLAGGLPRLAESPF

Experiments:
[1] = molecular target: human glucagon receptor (human) (UniProt P47871)
[2] = molecular target: human glucagon receptor (human) (UniProt P47871); remark: listed apart in the source

EC50 in the CRE-luciferase assay, HEK293 CRE-luc2P cells expressing recombinant GCGR, 0.5% human plasma [1]: 0.047 nM
EC50 of cAMP generation (AlphaScreen cAMP assay), CHO-K1 cells expressing human GCGR, 0.1% BSA [2]: 0.02 nM
Substance: glucagon (peptide)
